The values below come from patent publication US20240349732A1 (IMPETUS AGRICULTURE, published 2024).

This assay has as its target T1, 2Aa/1F/2Aa chimera (domains I and III of Cry2Aa, domain II of Cry1F) (biotin-labeled).
T1 chain: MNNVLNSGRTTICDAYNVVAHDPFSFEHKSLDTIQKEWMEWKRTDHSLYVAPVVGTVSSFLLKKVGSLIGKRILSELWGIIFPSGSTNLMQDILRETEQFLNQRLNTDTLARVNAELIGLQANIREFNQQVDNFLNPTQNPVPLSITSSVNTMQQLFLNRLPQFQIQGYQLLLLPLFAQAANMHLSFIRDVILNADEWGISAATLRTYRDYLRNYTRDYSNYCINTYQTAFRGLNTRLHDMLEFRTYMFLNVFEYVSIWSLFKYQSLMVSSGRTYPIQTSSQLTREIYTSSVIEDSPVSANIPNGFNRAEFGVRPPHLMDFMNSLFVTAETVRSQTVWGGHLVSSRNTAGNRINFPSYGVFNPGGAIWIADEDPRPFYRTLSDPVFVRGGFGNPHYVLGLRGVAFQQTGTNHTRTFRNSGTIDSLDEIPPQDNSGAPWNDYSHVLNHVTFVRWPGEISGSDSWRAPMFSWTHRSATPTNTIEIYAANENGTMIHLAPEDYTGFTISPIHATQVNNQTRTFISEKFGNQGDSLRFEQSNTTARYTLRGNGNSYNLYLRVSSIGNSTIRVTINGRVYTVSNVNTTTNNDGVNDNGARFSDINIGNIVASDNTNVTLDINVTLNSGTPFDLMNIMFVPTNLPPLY
Description: ELISA, nanobody coated, biotinylated 2Aa/1F/2Aa chimera in solution.

B1: Cry1F monospecific nanobody #51 (VHH)
VHH: QVQLQESGGGLVQAGDSLRLSCAASEQSFNSEIMGWFRQAPGKEREFVAAITYSGSITKYADSAKGRFTISRDNAKNTVYLQMNSLNPEDTALYYCALNKGGLYTDYRSWATYDYRGQGTQVTVSS
Regarding B1, the binding result was “binds”.

B2: Cry1F monospecific nanobody #7 (VHH)
VHH: QVQLQESGGGSVQPGGSLKLSCAASGFTFSNYAMSWVRQAPGKGLEWVSGINAGGDTTNYADSVKDRFTISRDNAKNTLYLQMNSLKPEDTAIYYCLKLETSVVPSSSYYRNRGSRGQGTQVTVSS
Consider B2, for which the binding result is “binds”.
